Results as given in US20250000870A1, “Pharmaceutical Combinations for Treating Cancer” (Cellestia Biotech AG, priority 2021, published 2025).

Assays:
[1] = tested on: MV-4-11 leukemic cells; test: PrestoBlue combination screening with 6-(4-(tert-butyl)phenoxy)pyridin-3-amine, ZIP synergy analysis; format: cell-based, Human; settings: Drug 2 in combination with 6-(4-(tert-butyl)phenoxy)pyridin-3-amine (Drug 1), 72 hours
Protocol: (§1) Cell lines and drug combinations: Human T-ALL, AML and breast cancer cell lines RPMI-8402, MV-4-11 and HCC1187 were cultured under mycoplasma free conditions at 37° C. in RPMI-1640 media supplemented with 10% FCS (RPMI-8402 and HCC1187 cells) and IMDM media supplemented with 10% FCS (MV-4-11 cells). The kinase inhibitors listed in table 5 were used in combination with 6-(4-(tert-butyl) phenoxy)pyridin-3-amine.
(§2) 6-(4-(tert-butyl) phenoxy)pyridin-3-amine combination screening: Human cancer cells RPMI-8402, MV-4-11 and HCC1187 were seeded at a density of 10′000 cells/well in 96 well plate format and cultured in 100 μl of growth media. […] Concentration range used for each compound was determined based on individual IC50 values i.e concentration range selected flanks IC50 value of each compound. […] PrestoBlue® readout was taken using Sense (Hidex) plate reader.
(§3) PrestoBlue® viability assay: PrestoBlue® proliferation assays were performed to determine the growth kinetics of compound treated cells. […] In metabolically active and proliferating cells, resazurin is converted to resorufin due to an intrinsic reducing power of live cells and produces a red fluorescence. […] Cells were treated in triplicates (single agent) or duplicates (combinations) with pre-determined concentration of compounds as a single agent or in combination with 6-(4-(tert-butyl) phenoxy)pyridin-3-amine for 72 hours. […]

[2] = tested on: RPMI-8402 leukemic cells; test: as above; format: cell-based, Human; settings: Drug 2 in combination with 6-(4-(tert-butyl)phenoxy)pyridin-3-amine (Drug 1), 72 hours
Protocol: as §1, §2, §3

`CNC(=O)c1ccccc1Sc1ccc2c(/C=C/c3ccccn3)n[nH]c2c1` [Axitinib, N-Methyl-2-[[3-[(E)-2-pyridin-2-ylethenyl]-1H-indazol-6-yl]sulfanyl]benzamide] showed a ZIP score [1] of 4.5 and a ZIP score [2] of 35.5.
